Assay results as given in patent US20160326241A1.

Key:
[1] = molecular target: IL-17A/F heterodimer (human) (UniProt Q96PD4); assay: SPR (Biacore), antibody captured by anti-human IgG, antigen in solution
[2] = molecular target: human IL-17A/A homodimer (human) (UniProt Q16552); assay: cell-based or functional assay
[3] = molecular target: human IL-17A/A homodimer (human) (UniProt Q16552); assay: SPR (Biacore), antibody captured by anti-human IgG, antigen in solution; apparent KD

Row | Kd [1] [nM] | IC50 IL-8 [nM], RA-FLS, IL-17 treatment (10 ng/ml) [2] [nM] | IC50 [M], MMP-3 production in chondrocytes, IL-17 treatment [2] [M] | IC50 [nM], IL-8 production in A375 cells, IL-17 stimulation [2] [nM] | Kd [3] [nM] | Substance
1 | 1.11 | – | – | – | – | 2 + 2 IL-17#134 crossed TNFa mab (#16) (bispecific antibody)
2 | 0.24 | 0.41 | 3.59e-08 | 0.709 | – | 2 + 2 IL-17#136 scFab TNFa mab (#13) (bispecific antibody)
3 | – | – | – | – | 0.04 | 2 + 2 IL-17#136 scFab TNFa mab (#13) (bispecific antibody; other documents disagree on this pair)
4 | 0.5 | – | – | – | – | 1 + 1 IL-17#134 crossed TNFa (#22) (bispecific antibody)
